In this assay the test system is Serratia marcescens.

What is called MIC is the least concentration at which growth counts as inhibited. Low readings indicate a more susceptible organism, high ones a less susceptible organism.

For the sequence GENTAMICIN, the MIC is 0.5 µg/mL.

Source of the values: ChEMBL document CHEMBL1125677, “New derivatives of kanamycin B obtained by combined modifications in positions 1 and 6". Synthesis, microbiological properties, and in vitro and computer-aided toxicological evaluation” (J Med Chem, 1991).
